Laboratory results from patent US20250313563A1, “GLYCOGEN SYNTHASE KINASE 3 INHIBITORS AND USES THEREOF” (The Broad Institute, Inc., priority 2022, published 2025).
pIC50: −log10 of the molar value. Read-outs that look alike come from different tables or passages of the source.

Amino acid sequences for entries named in this document (tags omitted).
UniProt P49841, whole entry: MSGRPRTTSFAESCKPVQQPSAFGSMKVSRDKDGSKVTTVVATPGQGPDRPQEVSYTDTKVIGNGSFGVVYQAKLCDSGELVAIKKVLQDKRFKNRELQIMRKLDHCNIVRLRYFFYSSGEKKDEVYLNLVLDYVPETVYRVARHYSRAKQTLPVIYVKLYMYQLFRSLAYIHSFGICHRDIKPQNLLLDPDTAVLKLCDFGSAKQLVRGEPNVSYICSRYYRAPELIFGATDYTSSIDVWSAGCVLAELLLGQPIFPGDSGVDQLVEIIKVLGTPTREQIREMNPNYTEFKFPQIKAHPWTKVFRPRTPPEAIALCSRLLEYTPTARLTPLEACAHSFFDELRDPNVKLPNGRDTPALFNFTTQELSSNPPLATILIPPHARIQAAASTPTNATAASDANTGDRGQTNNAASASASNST
UniProt P49840, whole entry: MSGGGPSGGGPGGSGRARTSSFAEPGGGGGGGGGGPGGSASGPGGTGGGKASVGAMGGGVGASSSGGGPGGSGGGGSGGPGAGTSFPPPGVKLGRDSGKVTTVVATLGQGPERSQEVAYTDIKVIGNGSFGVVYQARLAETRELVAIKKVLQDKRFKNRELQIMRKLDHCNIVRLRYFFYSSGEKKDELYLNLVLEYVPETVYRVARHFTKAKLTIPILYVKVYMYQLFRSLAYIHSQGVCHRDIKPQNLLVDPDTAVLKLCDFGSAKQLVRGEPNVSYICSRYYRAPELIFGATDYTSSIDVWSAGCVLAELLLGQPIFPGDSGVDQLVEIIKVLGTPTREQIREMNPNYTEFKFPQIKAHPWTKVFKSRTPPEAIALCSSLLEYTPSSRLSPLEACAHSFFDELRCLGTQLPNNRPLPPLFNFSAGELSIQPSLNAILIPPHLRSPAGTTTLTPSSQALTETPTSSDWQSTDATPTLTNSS

Key:
[1] = molecular target: GSK3b (GST-full length GSK3b) (Homo sapiens (Human), UniProt P49841); assay: GSK3b TR-FRET kinase assay; type: biochemical
[2] = molecular target: GSK3α (GST-full length GSK3α) (Homo sapiens (Human), UniProt P49840); assay: GSK3α TR-FRET kinase assay; type: biochemical
[3] = read-out: GSK3-B TR-FRET BIOCHEMICAL (TR-FRET), GMean, IC50, 1 nM GSK3b, 2 μM ATP, 30 minute preincubation, geometric mean
[4] = read-out: GSK3-A TR-FRET BIOCHEMICAL (TR-FRET), GMean, IC50, 1 nM GSK3α, 4 μM ATP, 30 minute preincubation, geometric mean
[5] = read-out: GSK3-B TR-FRET BIOCHEMICAL (TR-FRET), IC50, 1 nM GSK3b, 2 μM ATP, 30 minute preincubation (Table 16)
[6] = read-out: GSK3-A TR-FRET BIOCHEMICAL (TR-FRET), IC50, 1 nM GSK3α, 4 μM ATP, 30 minute preincubation (Table 16)
[7] = read-out: GSK3-B (TR-FRET 1 mM ATP), GMean, IC50, 1 mM ATP, geometric mean
[8] = read-out: GSK3-A (TR-FRET 1 mM ATP), GMean, IC50, 1 mM ATP, geometric mean
[9] = read-out: GSK3-B TR-FRET BIOCHEMICAL (TR-FRET);, 1 nM GSK3b, 2 μM ATP, 30 minute preincubation, Table 16
[10] = read-out: GSK3-A TR-FRET BIOCHEMICAL (TR-FRET);, 1 nM GSK3α, 4 μM ATP, 30 minute preincubation, Table 16
[11] = read-out: GSK3-B TR-FRET BIOCHEMICAL (TR-FRET), IC50, 1 nM GSK3b, 2 μM ATP, 30 minute preincubation
[12] = read-out: GSK3-A TR-FRET BIOCHEMICAL (TR-FRET), IC50, 1 nM GSK3α, 4 μM ATP, 30 minute preincubation

pIC50 [1, 3]	pIC50 [2, 4]	pIC50 [1, 5]	pIC50 [2, 6]	SMILES	other results
5.30 to 6.00	6.00 to 7.00	–	–	CCC1(c2cccc(N3[C@H](C)CCC[C@@H]3C)c2)C2=C(CC(C)(C)CC2=O)Nc2n[nH]cc21 (stereo partly shown)	–
–	–	< 5.30	< 5.30	CC[C@]1(c2cccc(N(C)c3cccc(F)n3)c2)C2=C(CC(C)(C)CC2=O)Nc2n[nH]cc21	–
> 7.00	> 7.00	–	–	CC[C@@]1(c2cccc(C(F)(F)F)c2)C2=C(CC(C)(C)CC2=O)Nc2n[nH]c(C)c21	–
–	–	> 7.00	> 7.00	CC[C@@]1(c2cccc(-c3ccnc(C)c3)c2)C2=C(CC(C)(C)NC2=O)Nc2n[nH]c(C(F)F)c21	pIC50 [1, 7]: < 5.30; pIC50 [2, 8]: 6.00 to 7.00
> 7.00	> 7.00	–	–	CC[C@]1(c2cccc(N3CCOCC3)c2)C2=C(CC(C)(C)CC2=O)Nc2n[nH]c(C(F)(F)F)c21	pIC50 [1, 7]: > 7.00; pIC50 [2, 8]: > 7.00
–	–	5.30 to 6.00	6.00 to 7.00	CC[C@]1(c2cccc(C(F)(F)F)c2)C2=C(CCN(c3cn(C)nc3C)C2=O)Nc2n[nH]cc21	–
6.00 to 7.00	> 7.00	–	–	CC[C@]1(c2cccc(-c3ccccc3)c2)C2=C(CC(C)(C)CC2=O)Nc2n[nH]cc21	–
–	–	–	–	CCC1(c2cccc(C(F)(F)F)c2)C2=C(Nc3n[nH]cc31)C(C)N(Cc1ccccc1)C2=O (stereo not shown)	pIC50 [1, 9]: 6.00 to 7.00; pIC50 [2, 10]: > 7.00
–	–	–	–	CCC1(c2cccc(C(F)(F)F)c2)C2=C(CC(C(C)(C)C)NC2=O)Nc2n[nH]cc21 (stereo not shown)	pIC50 [1, 11]: 6.00 to 7.00; pIC50 [2, 12]: > 7.00
> 7.00	> 7.00	–	–	CC[C@]1(c2cccc(S(C)(=O)=O)c2)C2=C(CC(C)(C)NC2=O)Nc2n[nH]c(C)c21	pIC50 [1, 7]: > 7.00; pIC50 [2, 8]: > 7.00
–	–	> 7.00	> 7.00	CC[C@]1(c2cccc(Oc3ncccn3)c2)C2=C(CC(C)(C)NC2=O)Nc2n[nH]c(Cl)c21	pIC50 [1, 7]: 6.00 to 7.00; pIC50 [2, 8]: > 7.00
6.00 to 7.00	> 7.00	–	–	CC[C@@]1(c2cccc(Br)c2)C2=C(C[C@H](C(F)(F)F)CC2=O)Nc2n[nH]cc21	–
–	–	6.00 to 7.00	> 7.00	CC[C@]1(c2cccc(-c3ccnc4cc(F)cnc34)c2)C2=C(CC(C)(C)NC2=O)Nc2n[nH]cc21	–
–	–	6.00 to 7.00	> 7.00	CCC1(c2cccc(N(C)C(=O)C3CCCCC3)c2)C2=C(CC(C)(C)CC2=O)Nc2n[nH]cc21 (stereo not shown)	–
6.00 to 7.00	> 7.00	–	–	CC[C@]1(c2cccc(N3CCCCC3)c2)C2=C(CC(C)(C)CC2=O)Nc2n[nH]cc21	–
–	–	–	–	CCC1(c2cccc(C(F)(F)F)c2)C2=C(CN(c3ccccc3)C2=O)Nc2n[nH]cc21 (stereo not shown) [Compound 945377]	pIC50 [1, 9]: 5.30 to 6.00; pIC50 [2, 10]: 6.00 to 7.00
–	–	> 7.00	> 7.00	CC[C@@]1(c2cccc(-c3cnn(CCOC)c3)c2)C2=C(CC(C)(C)CC2=O)Nc2n[nH]c(C)c21	–
–	–	6.00 to 7.00	> 7.00	CC[C@@]1(c2cccc(C(F)(F)F)c2)C2=C(CCN(c3cscn3)C2=O)Nc2n[nH]cc21	–
–	–	6.00 to 7.00	> 7.00	CC[C@]1(c2cccc(-c3ccnc4ccncc34)c2)C2=C(CC(C)(C)NC2=O)Nc2n[nH]cc21	pIC50 [1, 7]: < 5.30; pIC50 [2, 8]: 6.00 to 7.00
< 5.30	5.30 to 6.00	–	–	CC[C@]1(c2cccc(C3CCOCC3)c2)C2=C(CC(C)(C)CC2=O)Nc2n[nH]cc21	–
–	–	–	–	CC[C@]1(c2cccc(-c3ccnc(C)c3)c2)C2=C(Nc3n[nH]cc31)[C@@H]1CC[C@@H](C1)C2=O	pIC50 [1, 9]: 6.00 to 7.00; pIC50 [2, 10]: > 7.00
–	–	–	–	CC[C@@]1(c2cccc(-c3ccnn3C)c2)C2=C(CC(C)(C)NC2=O)Nc2n[nH]cc21	pIC50 [1, 7]: 5.30 to 6.00; pIC50 [1, 11]: > 7.00; pIC50 [2, 8]: 6.00 to 7.00; pIC50 [2, 12]: > 7.00
–	–	5.30 to 6.00	6.00 to 7.00	CC[C@]1(c2cccc(-c3cnn(-c4ccccc4)c3F)c2)C2=C(CC(C)(C)NC2=O)Nc2n[nH]cc21	–
